The nature of the series: Confirmation test of delivery of liposome in vitro, CLSM of NBD and Sulfo rhodamine B (Test Example 4). To be noted: in vitro rat skin, 1.41 mA (0.45 mA/cm^2) for 1 hour.

As to Sulfo rhodamine B, the “delivery into hair follicles (fluorescence detected by CLSM)” value is on record as “not detected in hair follicles”.

Values taken from patent publication US20080193514A1, “COMPOSTIONS AND METHODS FOR IONTOPHORESIS DELIVERY OF ACTIVE INGREDIENTS THROUGH HAIR FOLLICLES” (TRANSCU LTD., priority 2006, published 2008).
